# Reference: US12268683B2, “Compounds and methods for synergistic activation of M channels” (THE REGENTS OF THE UNIVERSITY OF CALIFORNIA, priority 2018, dated 2025)
# Tests used:
# Format in all cases: cell-based
# KCNQ2-W236L/KCNQ3-W265L = KCNQ2-W236L/KCNQ3-W265L (Homo sapiens, UniProt O43525+O43526, W236L/W265L); test: TEVC of double-mutant WL/WL KCNQ2/3 channels
# From the text: (§1) cRNA transcripts encoding human KCNA1, KCNQ1, KCNQ2, KCNQ3, KCNQ4, or KCNQ5 were generated by in vitro transcription using the T7 polymerase message machine kit (Thermo Fisher Scientific), after vector linearization, from cDNA sub-cloned into plasmids incorporating X. laevis β-globin 5′ and 3′ UTRs flanking the coding region to enhance translation and cRNA stability. cRNA was quantified by spectrophotometry. Mutant cDNAs were generated by site-directed mutagenesis using a QuikChange kit according to manufacturer's protocol (Stratagene, San Diego, Calif.) and corresponding cRNAs prepared as above. Defolliculated stage V and VI X. laevis oocytes (Ecocyte Bioscience, Austin, Tex.) were injected with Kv channel a subunit cRNAs (10 ng total per oocyte). […]
# (§2) TEVC recording was performed at room temperature with an OC-725C amplifier (Warner Instruments, Hamden, Conn.) and pClamp10.2 software (Molecular Devices, Sunnyvale, Calif.) 3-5 days after cRNA injection as described in the section above. […] Currents were recorded in response to pulses between −80 and +40 mV at 20 mV intervals, or a single pulse to +40 mV, from a holding potential of −80 mV, to yield current-voltage relationships, current magnitude, and for quantifying activation rate. […]
# KCNQ5 = KCNQ5 (Homo sapiens, UniProt Q9NR82); test: TEVC of homomeric KCNQ5 expressed in Xenopus oocytes
# From the text: as §1, §2
# KCNQ4 = KCNQ4 (Homo sapiens, UniProt P56696); test: TEVC of homomeric KCNQ4 expressed in Xenopus oocytes; conditions: −60 mV; read-out: EC50 of KCNQ4 activation
# From the text: as §1, §2
# KCNQ3* (KCNQ3-A315T) = KCNQ3* (KCNQ3-A315T) (Homo sapiens, UniProt O43525, A315T); test: TEVC of homomeric KCNQ3* expressed in Xenopus oocytes; conditions: −60 mV; read-out: EC50 of KCNQ3* activation
# From the text: as §1, §2
# KCNQ2 = KCNQ2 (Homo sapiens, UniProt O43526); test: TEVC of homomeric KCNQ2 expressed in Xenopus oocytes
# From the text: as §1, §2
# KCNQ2/3 = KCNQ2/3 (Homo sapiens, UniProt O43525+O43526); test: TEVC of heteromeric KCNQ2/3 channels expressed in Xenopus laevis oocytes
# From the text: cRNA transcripts encoding human KCNA1, KCNQ1, KCNQ2, KCNQ3, KCNQ4, or KCNQ5 were generated by in vitro transcription using the T7 polymerase message machine kit (Thermo Fisher Scientific), after vector linearization, from cDNA sub-cloned into plasmids incorporating X. laevis β-globin 5′ and 3′ UTRs flanking the coding region to enhance translation and cRNA stability. cRNA was quantified by spectrophotometry. Mutant cDNAs were generated by site-directed mutagenesis using a QuikChange kit according to manufacturer's protocol (Stratagene, San Diego, Calif.) and corresponding cRNAs prepared as above. Defolliculated stage V and VI X. laevis oocytes (Ecocyte Bioscience, Austin, Tex.) were injected with Kv channel a subunit cRNAs (10 ng total per oocyte). Oocytes were incubated at 16° C. in Barth's saline solution (Ecocyte) containing penicillin and streptomycin, with daily washing, for 3-5 days prior to two-electrode voltage-clamp (TEVC) recording.
# TEVC recording was performed at room temperature with an OC-725C amplifier (Warner Instruments, Hamden, Conn.) and pClamp10.2 software (Molecular Devices, Sunnyvale, Calif.) 3-5 days after cRNA injection as described in the section above. Oocytes were placed in a small-volume oocyte bath (Warner) and viewed with a dissection microscope. Chemicals were sourced from Sigma. Bath solution was (in mM): 96 NaCl, 4 KCl, 1 MgCl2, 1 CaCl2. 10 HEPES (pH 7.6). […] MTX (DMSO), sorbic acid (ethanol), and glutaconic acid (molecular grade H2O) were stored at −20° C. as 1 M stocks. Oleamide was stored as a 1 mM stock in ethanol at 4° C. Palmitic acid was conjugated with bovine serum albumin as a 1 mM stock and stored at −20° C. All compounds were diluted to working concentrations each experimental day. All compounds were introduced to the recording bath via gravity perfusion at a constant flow of 1 ml/min for 3 min prior to recording. Pipettes were of 1-2 MΩ resistance when filled with 3 M KCl. Currents were recorded in response to pulses between −80 and +40 mV at 20 mV intervals, or a single pulse to +40 mV, from a holding potential of −80 mV, to yield current-voltage relationships, current magnitude, and for quantifying activation rate. TEVC data analysis was performed with Clampfit10.2 (Molecular Devices) and Graphpad Prism software (GraphPad, San Diego, Calif., USA); values are stated as mean±SEM. […]
# cRNA transcripts encoding human KCNQ2, KCNQ3, KCNQ4, KCNQ5 (Kv7.2-Kv7.5) were generated by in vitro transcription using the T7 polymerase mMessage mMachine kit (Thermo Fisher Scientific), after vector linearization, from cDNA sub-cloned into plasmids incorporating Xenopus laevis β-globin 5′ and 3′ UTRs flanking the coding region to enhance translation and cRNA stability. cRNA was quantified by spectrophotometry. […]
structure (smiles),measurement,setting,value
"CC(C)CC(=O)O [IVA, isovaleric acid]",effect on WL/WL KCNQ2/3 (in words),KCNQ2-W236L/KCNQ3-W265L,did not increase
same,effect on KCNQ5 (in words),KCNQ5,no effect
same,EC50,KCNQ4,16200 nM
same,EC50,KCNQ3* (KCNQ3-A315T),500 nM
same,shift of KCNQ2 activation V0.5,"KCNQ2; IVA, concentration not given",−9 mV
same,EC50,"KCNQ2; −60 mV, read-out: EC50 of KCNQ2 activation",340 nM
same,KCNQ2/3 current fold-increase,KCNQ2/3,fivefold
same,effect on KCNQ2/3 at low dose,KCNQ2/3,negligible effects
same,"effect on voltage dependence of KCNQ2/3 activation, screen of M. oppositifolius leaf compounds",KCNQ2/3,negative-shifted
same,shift of KCNQ2/3 activation V0.5,KCNQ2/3,−11 mV
